# Source: PubChem
# ALDH1A1 inh = blocks purified human ALDH1A1 activity; actives 7.3% (n = 220,000); P00352; AID 1030; Purified ALDH1A1, NADH fluorescence, propionaldehyde substrate; Potency, µM (top dose mostly 75.3 µM), for inactives: at the top dose activity, negative = inhibition, hits mostly inhibitors; active means well fitted inhibition curve with a large enough effect, not every such curve was filed as active; inconclusive means small, poorly fitted or top-dose-only effect, or another doubt; inactive means no such curve, though single readings can be large or run the other way;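 further: potency means the concentration at half of the fitted maximal effect; plate controls were no enzyme wells and a reference inhibitor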
# G9a inh = blocks human histone lysine methyltransferase G9a; Q96KQ7; G9a H3K9 monomethylation, AlphaScreen, 2 h; Potency, µM (top dose mostly 102 µM), for inactives: at the top dose activity, negative = inhibition, actives largely listed as inhibitors; actives 8.8% (n = 350,000); further: potency means the concentration at half of the fitted maximal effect; on the % scale 0 is the no-effect control and ±100 the full control effect; nearly all actives have a fitted effect of over 75% in size
#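 Step 1: enzyme (final 20 nM) with compound, 15 min RT. Step 2: substrate peptide 500 nM and SAM 20 uM, 2 h RT. Step 3: anti-H3K9me1 antibody and AlphaScreen beads, 10 min, then plate read.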
# Sfp inh = blocks B. subtilis Sfp PPTase activity; Q9F4F7; Biochemical Sfp PPTase activity, qHTS; Potency, µM, inactives show max response, negative = inhibition, hits mostly inhibitors; 310,000 tested, 3.5% active; active means well fitted inhibition curve with a large enough effect; inconclusive means small, poorly fitted or top-dose-only effect, or another doubt; inactive means no such curve, though single readings can be large or run the other way;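 further: the enzyme is Sfp with the accession as filed and its product quenches rhodamine fluorescence; potency means the concentration at half of the fitted maximal effect; 0% = enzyme reaction without inhibitor and -100% = no enzyme wells; top concentration of the series not given in the record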
#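 Compounds were incubated with enzyme (final 15 nM) for 15 min at room temperature before substrate addition started the reaction. Fluorescence at 525 nm excitation, 598 nm emission was recorded immediately and after 30 minutes.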
# miR-21 FLuc = raises the signal of a miR-21 reporter | HeLa miR-21 FLuc reporter, luciferase, 48 h | Potency, µM (highest dose often 38.3 µM), without a hit: at the top dose reporter change, positive = more light | 340,000 tested, under 10 active; active = well fitted rising curve with a large enough effect; inconclusive = small, poorly fitted or top-dose-only effect; inactive = no such curve, though single readings can be large or run the other way;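 note: % of control where 0% means no effect; miR-21 action dims this reporter so a rising signal means less miR-21 action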
#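 HeLa cells endogenously expressing miR-21, stably carrying CMV-driven firefly luciferase with a downstream miR-21 binding site, 2000 cells/well. Titrations up to approximately 40 uM, 48 hours; luciferase luminescence read.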
# JMJD2E inh = blocks human JMJD2E demethylase activity; B2RXH2; JMJD2E catalytic domain, FDH-coupled NADH fluorescence (FDH is formaldehyde dehydrogenase); Potency, µM (series often up to 57.1 µM), without a hit: at the highest dose activity change, negative = inhibition, actives largely listed as inhibitors; actives 1.6% (n = 230,000); active means well fitted inhibition curve with a large enough effect, not every such curve was filed as active; inconclusive means small, poorly fitted or top-dose-only effect, or another doubt; inactive means no such curve, though single readings can be large or run the other way;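 further: potency means the concentration at half of the fitted maximal effect; 0% = wells with enzyme and -100% = buffer wells without enzyme; nearly all actives have a fitted effect of over 50% in size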
# LMNA splice mod = modulators of lamin A splicing | HeLa LMNA splicing GFP/RFP minigene ratio, 48 h | Potency, µM (doses to about 46.1 µM), for the others: at the highest dose ratio change, negative = inhibition, hits mostly inhibitors | actives 0.01% (n = 200,000) | AID 1487; active means well fitted inhibition curve with a large enough effect in the signal ratio, with a control signal flat, not every such curve was filed as active; inconclusive means small, poorly fitted or top-dose-only effect, or effect the other way, or a change in a side signal; the % refers to the signal ratio; further: potency means the concentration at half of the fitted maximal effect; on the % scale 0 is the no-effect control and ±100 the full control effect
#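 S3 HeLa cells stably expressing lamin A-EGFP splicing minigene plus DsRed2, 600 cells/well, 48 h compound exposure at 37C. Laser-scanning cytometry; analysed as GFP (500-530 nm)/RFP (575-640 nm) total intensity ratio; 0.5% DMSO vehicle.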
# An asterisk follows results filed as active; ? = inconclusive; nt = no result given; [ ] = remark or other dose. An excerpt weighted towards active compounds, which were near 13% of everything screened. Unless noted, the call rests on the fitted dose curve; in most records, active means well fitted curve in the direction sought with a large enough effect; inconclusive means small, poorly fitted or top-dose-only effect, or another doubt; inactive means no such curve, though single readings can be large; an effect the other way counts as inactive or inconclusive.
cpd | SMILES | ALDH1A1 inh | G9a inh | Sfp inh
1 | OC[C@@H]1O[C@H](OC2[C@@H](O)[C@@H](O)C(O)O[C@@H]2CO)[C@H](O)[C@@H](O)[C@@H]1OC1O[C@H](CO)[C@@H](O)[C@H](O)[C@@H]1O (stereo partly drawn) | nt | nt | 25%
2 | Cc1ccc(-n2c(=O)[nH]c3c(C(N)=O)nc(-c4ccc(C)o4)nc32)cc1 | ? | ? | 45µM*
3 | COc1ccc(OC)c(-c2nc(C(N)=O)c3[nH]c(=O)n(-c4ccc(F)cc4)c3n2)c1 | 1% | 17% | -11%
4 | CCOc1ccc(CN2CCC(C(=O)Nc3cccc(-c4ccn[nH]4)c3)CC2)cc1Cl | nt | ? | 15%
5 | Clc1nc(Cl)nc(-c2cn(-c3ccccc3)c3ccccc23)n1 | nt | 13µM* | 56µM*
6 | OCCCc1cn(-c2ccccc2)c2ccccc12 | -4% | 5% | 19%
7 | COc1ccc(OC)c(C(=O)NC(CC(N)=O)c2ccc(N3CCN(c4ccccn4)CC3)c([N+](=O)[O-])c2)c1 (stereo not drawn) | nt | 79µM* | 5%
8 | Cc1cc(C)cc(C(=O)NC(CC(N)=O)c2ccc(N3CCN(C)CC3)c([N+](=O)[O-])c2)c1 (stereo not drawn) | nt | ? | 9%
9 | Cc1cc(C)cc(C(=O)NC(CC(N)=O)c2ccc(N3CCN(c4ccccn4)CC3)c([N+](=O)[O-])c2)c1 (stereo not drawn) | nt | 79µM* | 10%
10 | Cc1ccc([N+](=O)[O-])cc1S(=O)(=O)N1CCn2cccc2C1c1ccccc1F (stereo not drawn) | nt | 11µM* | nt

cpd | miR-21 FLuc | JMJD2E inh | LMNA splice mod
1 | nt | nt | nt
2 | -11% | ? | 2%
3 | -10% | -15% | 2%
4 | 16% | nt | nt
5 | -3% | ? | nt
6 | 0% | -26% | ?
7 | 2% | nt | nt
8 | 0% | nt | nt
9 | -1% | nt | nt
10 | 1% | nt | -10%[46 µM]

# The last two entries of the section above lead into the next.
cpd | SMILES | ALDH1A1 inh | G9a inh | Sfp inh
9 | Cc1cc(C)cc(C(=O)NC(CC(N)=O)c2ccc(N3CCN(c4ccccn4)CC3)c([N+](=O)[O-])c2)c1 (stereo not drawn) | nt | 79µM* | 10%
10 | Cc1ccc([N+](=O)[O-])cc1S(=O)(=O)N1CCn2cccc2C1c1ccccc1F (stereo not drawn) | nt | 11µM* | nt
11 | Cc1ccc([N+](=O)[O-])cc1S(=O)(=O)N1CCn2cccc2C1c1ccccc1 (stereo not drawn) | nt | ? | nt
12 | CC(=O)c1cccc(NC(=O)CCc2c(C)nc3nc(CN)nn3c2C)c1 | nt | 16µM* | nt
13 | Cc1ccc(NC(=O)CN(C)C(=O)CSc2nncn2C)cc1 | 1% | -23%[59 µM] | 0%
14 | CC(=O)/C(=N\Nc1ccc(C)cc1)Sc1nncn1C | ? | 8.9µM* | ?
15 | CNc1c(NS(=O)(=O)c2ccc(C3CCCCC3)cc2)c(=O)oc2ccccc12 | nt | 5% | -2%
16 | COc1ccc(Cl)cc1NC(=S)N(Cc1ccccc1C)CC1CCC(C(=O)O)CC1 (stereo not drawn) | ? | 28µM* | 56µM*
17 | CC(C)(C)C(=O)NC(CC(=O)O)c1ccccc1 (stereo not drawn) | 19% | 50µM* | 15%
18 | Cc1nnc(NC(=O)CC(CN(C)S(=O)(=O)c2ccccc2)c2ccccc2)s1 (stereo not drawn) | ? | -14% | 27%
19 | Cc1nnc(NC(=O)CC(NC(=O)C(F)(F)F)c2ccccc2)s1 (stereo not drawn) | ? | 40µM* | -26%
20 | O=C(CC(NC(=O)C(F)(F)F)c1ccccc1)Nc1nnc(CCc2ccccc2)s1 (stereo not drawn) | 17% | 10µM* | 18µM*

cpd | miR-21 FLuc | JMJD2E inh | LMNA splice mod
9 | -1% | nt | nt
10 | 1% | nt | -10%[46 µM]
11 | -2% | nt | 6%[46 µM]
12 | 1% | nt | nt
13 | 0% | 4% | 6%
14 | 0% | -20% | 0%
15 | 9% | nt | nt
16 | 0% | -6% | nt
17 | 2% | 9% | nt
18 | 6% | 8% | -5%
19 | -25% | -4% | -11%
20 | -5% | -8% | -8%

# Further compounds
cpd | SMILES | ALDH1A1 inh | G9a inh | Sfp inh
21 | CC(C)Oc1ccc(/C(O)=C2/C(=O)C(=O)N(CCN(C)C)C2c2ccco2)cc1 (stereo not drawn) | ? | ? | -18%
22 | CCN(CC)CCN1C(=O)C(=O)/C(=C(/O)c2ccc(OC)cc2)C1c1ccco1 (stereo not drawn) | -12% | 40µM* | -6%
23 | CCOc1ccc(/C(O)=C2/C(=O)C(=O)N(c3nc(C)c(C)s3)C2c2ccco2)cc1 (stereo not drawn) | 1% | 45µM* | -6%
24 | CCN(CC)CCN1C(=O)C(=O)/C(=C(/O)c2ccncc2)C1c1ccccc1 (stereo not drawn) | -10% | 50µM* | -2%
25 | CN(C(=O)c1cccc(S(=O)(=O)N2CCOCC2)c1)c1c(N)n(Cc2ccccc2)c(=O)[nH]c1=O | nt | 7%[12.7 µM] | nt
26 | COC(=O)COc1ccc(-c2ccc(F)cc2)cc1C=O | ? | 19%[59 µM] | -11%
27 | COC(=O)COc1ccc(-c2ccccc2)cc1C=O | ? | 5%[59 µM] | 79µM*
28 | Cc1ccc2sc(N3CCN(CCNC(=O)c4ccco4)CC3)nc2c1C | nt | 45µM* | nt
29 | O=C(NCCN1CCCCC1)c1ccco1 | 1% | 1%[59 µM] | 15%
30 | COc1ccc(N2C(=O)/C(=C/N(C)C)NC2=S)cc1 | 3% | 3.5µM* | 56µM*

cpd | miR-21 FLuc | JMJD2E inh | LMNA splice mod
21 | -29% | -22% | -3%
22 | -17% | -18% | -5%
23 | -25% | -7% | -8%
24 | 0% | ? | -1%
25 | nt | nt | nt
26 | 0% | -16% | nt
27 | 0% | ? | nt
28 | nt | nt | nt
29 | -1% | -3% | -2%
30 | 0% | 9% | nt

# (list continues)
cpd | SMILES | ALDH1A1 inh | G9a inh | Sfp inh
31 | COc1ccc(N2C(=O)/C(=C/c3cccnc3)NC2=S)cc1 | 4% | ? | -4%
32 | Clc1ccc(C(CCN2CCCC2)Cc2ccccc2)cc1 (stereo not drawn) | nt | 10µM* | -24%
33 | OC(CCN1CCCCC1)c1ccc(-c2ccccc2)cc1 (stereo not drawn) | nt | 4% | 12%
34 | O=C(NC(=S)Nc1cccc(Cl)c1N1CCCC1)c1ccc(-c2cccc([N+](=O)[O-])c2)o1 | 28µM* | ? | 14%
35 | O=C(Nc1ccccc1F)c1ccc(-c2cccc([N+](=O)[O-])c2)o1 | nt | -10% | 8%
36 | O=[N+]([O-])c1cccc(-c2ccc(C(=S)N3CCN(c4ccccc4)CC3)o2)c1 | nt | 3.5µM* | 13µM*
37 | O=[N+]([O-])c1cccc(-c2ccc(CN3CCCCC3)o2)c1 | nt | nt | 2%
38 | N#C/C(=C\c1ccc(-c2cccc([N+](=O)[O-])c2)o1)c1nnc(N2CCOCC2)n1-c1ccccc1 | 7.9µM* | nt | -19%
39 | CN1CCN(C(=S)c2ccc(-c3cccc([N+](=O)[O-])c3)o2)CC1 | nt | 40µM* | -16%
40 | O=[N+]([O-])c1cc(-c2ccc(C(=S)N3CCOCC3)o2)ccc1Cl | 4µM* | 1.8µM* | -95%
41 | O=[N+]([O-])c1cccc(-c2ccc(C(=S)N3CCOCC3)o2)c1 | 3% | nt | 20µM*
42 | N#C/C(=C\c1ccc(-c2ccc([N+](=O)[O-])cc2Br)o1)C(=O)N1CCN(c2ccccc2)CC1 | 12% | 4µM* | 2%

cpd | miR-21 FLuc | JMJD2E inh | LMNA splice mod
31 | -10% | 3% | -10%
32 | -1% | nt | nt
33 | -40% | nt | nt
34 | -8% | 6% | 1%
35 | -50% | nt | nt
36 | -5% | -5% | nt
37 | -10% | nt | nt
38 | 4% | -3% | ?
39 | -54% | -15% | nt
40 | -41% | 3% | 7%[9.22 µM]
41 | -60% | -21% | nt
42 | 0% | -4% | -7%

# 2 consecutive compounds from above, for reference:
cpd | SMILES | ALDH1A1 inh | G9a inh | Sfp inh
35 | O=C(Nc1ccccc1F)c1ccc(-c2cccc([N+](=O)[O-])c2)o1 | nt | -10% | 8%
36 | O=[N+]([O-])c1cccc(-c2ccc(C(=S)N3CCN(c4ccccc4)CC3)o2)c1 | nt | 3.5µM* | 13µM*

cpd | miR-21 FLuc | JMJD2E inh | LMNA splice mod
35 | -50% | nt | nt
36 | -5% | -5% | nt
